According to patent US11478464B1, “Method for treating inflammation” (KING FAISAL UNIVERSITY, priority 2022, dated 2022):

Test system: HEK293 cells
Settings: human, 24 h, 40 μM

Compound: Cc1ccc(-c2cc(C(F)(F)F)nn2-c2ccc(S(N)(=O)=O)cc2)cc1 [Celecoxib]
- Proliferation of HEK293 (difference in absorbance between 450 and 620 nm), Average: 0.96
